Test results reported in US11191812B2 (ADOCIA, priority 2017, dated 2021).

What was measured:
[1] = Physical stability at 37° C. in static conditions, visual inspection (EP 2.9.20); details: 1 mg/mL
[2] = Thioflavin T (ThT) fluorescence fibrillation test, latency time (lag time); format: physicochemical; details: alone

## CSCC[C@H](NC(=O)[C@H](CC(C)C)NC(=O)[C@H](Cc1c[nH]c2ccccc12)NC(=O)[C@H](CCC(N)=O)NC(=O)[C@@H](NC(=O)[C@H](Cc1ccccc1)NC(=O)[C@H](CC(=O)O)NC(=O)[C@H](CCC(N)=O)NC(=O)[C@H](C)NC(=O)[C@H](CCCN=C(N)N)NC(=O)[C@H](CCCN=C(N)N)NC(=O)[C@H](CO)NC(=O)[C@H](CC(=O)O)NC(=O)[C@H](CC(C)C)NC(=O)[C@H](Cc1ccc(O)cc1)NC(=O)[C@H](CCCCN)NC(=O)[C@H](CO)NC(=O)[C@H](Cc1ccc(O)cc1)NC(=O)[C@H](CC(=O)O)NC(=O)[C@H](CO)NC(=O)[C@@H](NC(=O)[C@H](Cc1ccccc1)NC(=O)[C@@H](NC(=O)CNC(=O)[C@H](CCC(N)=O)NC(=O)[C@H](CO)NC(=O)[C@@H](N)Cc1c[nH]cn1)[C@@H](C)O)[C@@H](C)O)C(C)C)C(=O)N[C@@H](CC(N)=O)C(=O)N[C@H](C(=O)O)[C@@H](C)O [glucagon]
[1]
  Physical stability of solution of glucagon at acidic pH: 2 days
[2]
  Stability of glucagon solution at acidic pH under ThT measurement conditions: stable for only a few minutes
